What all share (type): cell-based
In assay [1] the target is T1, human EGFR exon 20 V769_D770insASV (Homo sapiens, UniProt P00533, INS769ASV).
T1 construct: expressed in transfected cells; host or cells: Ba/F3 (DSMZ ACC-300), lentiviral transduction, puromycin selection, IL3 depletion
Put plainly: EGFR Exon20 ASV insertion cellular phosphorylation inhibition (MSD pEGFR Y1068/total EGFR).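 Further: electrochemiluminescent readout on an MSD SECTOR Imager, IL3-independent transduced cells in medium with 1% FBS, compound concentration series at 37 °C and 5% CO2.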 The following applies: Ba/F3 EGFR ASV ins cells, 4 h compound, p-EGFR(Y1068)/total EGFR.

Amino acid sequences for entries named in this document (tags omitted). Chains listed by the source or under a name are the forms on record and can include a tag or linker. Residues count along the entry.
UniProt P00533, with tags, fused parts or gaps INS769ASV: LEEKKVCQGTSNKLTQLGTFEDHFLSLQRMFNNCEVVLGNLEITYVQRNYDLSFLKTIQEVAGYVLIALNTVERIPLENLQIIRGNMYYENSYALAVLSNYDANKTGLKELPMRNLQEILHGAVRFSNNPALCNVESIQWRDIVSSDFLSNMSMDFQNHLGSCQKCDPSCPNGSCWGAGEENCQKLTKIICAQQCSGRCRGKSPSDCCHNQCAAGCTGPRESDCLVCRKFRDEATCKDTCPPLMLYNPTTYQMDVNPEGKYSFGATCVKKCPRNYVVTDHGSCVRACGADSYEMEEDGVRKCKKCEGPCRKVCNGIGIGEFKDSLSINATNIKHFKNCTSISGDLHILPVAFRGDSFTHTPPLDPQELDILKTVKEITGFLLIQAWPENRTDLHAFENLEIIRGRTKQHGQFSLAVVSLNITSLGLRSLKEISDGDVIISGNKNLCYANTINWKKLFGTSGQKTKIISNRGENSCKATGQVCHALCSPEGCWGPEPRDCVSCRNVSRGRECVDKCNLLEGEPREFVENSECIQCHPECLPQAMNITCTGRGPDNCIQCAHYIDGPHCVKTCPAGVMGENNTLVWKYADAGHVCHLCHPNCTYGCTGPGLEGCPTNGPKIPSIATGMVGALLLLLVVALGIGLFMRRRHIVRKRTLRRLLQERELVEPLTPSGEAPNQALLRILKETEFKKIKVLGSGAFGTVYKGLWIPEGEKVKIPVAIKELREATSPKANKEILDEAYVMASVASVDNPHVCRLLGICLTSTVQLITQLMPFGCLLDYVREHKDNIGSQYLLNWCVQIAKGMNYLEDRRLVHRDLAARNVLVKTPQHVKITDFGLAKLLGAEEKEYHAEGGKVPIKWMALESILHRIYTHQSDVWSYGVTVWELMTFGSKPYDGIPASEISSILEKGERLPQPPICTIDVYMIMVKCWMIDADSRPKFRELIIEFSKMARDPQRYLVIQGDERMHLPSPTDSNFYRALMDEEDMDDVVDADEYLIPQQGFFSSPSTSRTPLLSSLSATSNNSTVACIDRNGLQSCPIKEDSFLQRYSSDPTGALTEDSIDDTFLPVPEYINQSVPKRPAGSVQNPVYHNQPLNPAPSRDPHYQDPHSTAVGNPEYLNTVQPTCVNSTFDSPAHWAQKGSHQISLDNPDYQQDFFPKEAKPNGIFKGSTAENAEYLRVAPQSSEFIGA
UniProt P00533, 25-1210: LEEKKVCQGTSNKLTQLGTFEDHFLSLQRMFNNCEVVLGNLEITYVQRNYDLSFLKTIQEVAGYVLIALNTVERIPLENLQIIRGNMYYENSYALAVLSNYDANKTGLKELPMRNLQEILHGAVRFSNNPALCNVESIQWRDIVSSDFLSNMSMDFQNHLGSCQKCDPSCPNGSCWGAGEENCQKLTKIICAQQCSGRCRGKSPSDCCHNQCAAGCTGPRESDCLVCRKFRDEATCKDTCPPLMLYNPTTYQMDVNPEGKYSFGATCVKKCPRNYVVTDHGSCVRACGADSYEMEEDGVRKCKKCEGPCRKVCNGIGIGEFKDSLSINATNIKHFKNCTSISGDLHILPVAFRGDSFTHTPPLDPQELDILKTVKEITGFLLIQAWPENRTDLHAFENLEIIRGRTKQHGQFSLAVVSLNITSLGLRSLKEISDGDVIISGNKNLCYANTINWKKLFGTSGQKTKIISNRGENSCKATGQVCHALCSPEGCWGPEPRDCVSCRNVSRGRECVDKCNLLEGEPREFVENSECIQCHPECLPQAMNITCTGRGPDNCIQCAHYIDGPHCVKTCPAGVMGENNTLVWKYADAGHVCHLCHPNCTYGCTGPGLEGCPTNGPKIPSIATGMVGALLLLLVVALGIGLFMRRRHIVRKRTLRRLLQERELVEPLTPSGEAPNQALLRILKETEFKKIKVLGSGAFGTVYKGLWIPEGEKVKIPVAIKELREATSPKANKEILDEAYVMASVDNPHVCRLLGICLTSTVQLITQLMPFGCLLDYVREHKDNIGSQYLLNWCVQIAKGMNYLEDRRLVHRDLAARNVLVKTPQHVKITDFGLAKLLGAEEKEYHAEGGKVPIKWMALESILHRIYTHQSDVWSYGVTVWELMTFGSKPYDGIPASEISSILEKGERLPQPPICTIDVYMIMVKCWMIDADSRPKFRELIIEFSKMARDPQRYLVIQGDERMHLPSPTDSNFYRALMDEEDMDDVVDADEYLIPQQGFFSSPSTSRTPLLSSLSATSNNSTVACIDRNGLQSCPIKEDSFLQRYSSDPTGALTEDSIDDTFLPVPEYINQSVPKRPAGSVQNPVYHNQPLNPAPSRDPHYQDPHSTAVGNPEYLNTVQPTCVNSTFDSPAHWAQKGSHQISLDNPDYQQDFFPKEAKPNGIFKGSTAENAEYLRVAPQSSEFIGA
UniProt P00533, 25-1210 T790M/L858R: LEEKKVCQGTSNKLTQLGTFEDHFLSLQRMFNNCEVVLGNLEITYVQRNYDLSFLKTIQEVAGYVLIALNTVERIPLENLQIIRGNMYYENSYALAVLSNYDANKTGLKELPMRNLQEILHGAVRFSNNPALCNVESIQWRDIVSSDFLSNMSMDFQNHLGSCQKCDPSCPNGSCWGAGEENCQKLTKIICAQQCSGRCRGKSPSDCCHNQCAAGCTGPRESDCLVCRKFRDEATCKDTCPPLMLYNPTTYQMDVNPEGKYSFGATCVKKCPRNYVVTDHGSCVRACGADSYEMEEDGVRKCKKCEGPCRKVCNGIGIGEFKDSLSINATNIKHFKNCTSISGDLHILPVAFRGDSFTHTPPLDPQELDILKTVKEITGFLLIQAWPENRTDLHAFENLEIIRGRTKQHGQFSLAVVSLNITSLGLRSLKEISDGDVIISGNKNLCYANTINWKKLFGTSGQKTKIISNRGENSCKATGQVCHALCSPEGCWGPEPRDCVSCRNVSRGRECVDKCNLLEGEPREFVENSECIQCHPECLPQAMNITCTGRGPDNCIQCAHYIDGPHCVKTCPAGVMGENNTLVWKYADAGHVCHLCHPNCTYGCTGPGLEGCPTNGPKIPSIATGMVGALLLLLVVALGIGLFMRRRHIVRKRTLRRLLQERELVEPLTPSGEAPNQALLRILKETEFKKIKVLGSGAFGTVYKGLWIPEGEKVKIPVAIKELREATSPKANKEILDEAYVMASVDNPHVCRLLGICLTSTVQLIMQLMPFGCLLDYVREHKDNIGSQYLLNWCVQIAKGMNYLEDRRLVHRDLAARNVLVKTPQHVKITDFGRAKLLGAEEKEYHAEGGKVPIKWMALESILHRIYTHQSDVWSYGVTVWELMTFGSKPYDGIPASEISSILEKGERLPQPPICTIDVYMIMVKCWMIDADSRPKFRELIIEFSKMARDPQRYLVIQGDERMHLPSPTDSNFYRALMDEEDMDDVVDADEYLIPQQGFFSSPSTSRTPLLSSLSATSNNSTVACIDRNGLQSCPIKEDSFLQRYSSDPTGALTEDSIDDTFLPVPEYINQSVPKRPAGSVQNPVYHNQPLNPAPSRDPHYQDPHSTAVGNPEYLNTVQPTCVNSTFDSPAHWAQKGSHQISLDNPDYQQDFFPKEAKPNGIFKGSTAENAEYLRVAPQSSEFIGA
UniProt P00533, with tags, fused parts or gaps INS773NPH: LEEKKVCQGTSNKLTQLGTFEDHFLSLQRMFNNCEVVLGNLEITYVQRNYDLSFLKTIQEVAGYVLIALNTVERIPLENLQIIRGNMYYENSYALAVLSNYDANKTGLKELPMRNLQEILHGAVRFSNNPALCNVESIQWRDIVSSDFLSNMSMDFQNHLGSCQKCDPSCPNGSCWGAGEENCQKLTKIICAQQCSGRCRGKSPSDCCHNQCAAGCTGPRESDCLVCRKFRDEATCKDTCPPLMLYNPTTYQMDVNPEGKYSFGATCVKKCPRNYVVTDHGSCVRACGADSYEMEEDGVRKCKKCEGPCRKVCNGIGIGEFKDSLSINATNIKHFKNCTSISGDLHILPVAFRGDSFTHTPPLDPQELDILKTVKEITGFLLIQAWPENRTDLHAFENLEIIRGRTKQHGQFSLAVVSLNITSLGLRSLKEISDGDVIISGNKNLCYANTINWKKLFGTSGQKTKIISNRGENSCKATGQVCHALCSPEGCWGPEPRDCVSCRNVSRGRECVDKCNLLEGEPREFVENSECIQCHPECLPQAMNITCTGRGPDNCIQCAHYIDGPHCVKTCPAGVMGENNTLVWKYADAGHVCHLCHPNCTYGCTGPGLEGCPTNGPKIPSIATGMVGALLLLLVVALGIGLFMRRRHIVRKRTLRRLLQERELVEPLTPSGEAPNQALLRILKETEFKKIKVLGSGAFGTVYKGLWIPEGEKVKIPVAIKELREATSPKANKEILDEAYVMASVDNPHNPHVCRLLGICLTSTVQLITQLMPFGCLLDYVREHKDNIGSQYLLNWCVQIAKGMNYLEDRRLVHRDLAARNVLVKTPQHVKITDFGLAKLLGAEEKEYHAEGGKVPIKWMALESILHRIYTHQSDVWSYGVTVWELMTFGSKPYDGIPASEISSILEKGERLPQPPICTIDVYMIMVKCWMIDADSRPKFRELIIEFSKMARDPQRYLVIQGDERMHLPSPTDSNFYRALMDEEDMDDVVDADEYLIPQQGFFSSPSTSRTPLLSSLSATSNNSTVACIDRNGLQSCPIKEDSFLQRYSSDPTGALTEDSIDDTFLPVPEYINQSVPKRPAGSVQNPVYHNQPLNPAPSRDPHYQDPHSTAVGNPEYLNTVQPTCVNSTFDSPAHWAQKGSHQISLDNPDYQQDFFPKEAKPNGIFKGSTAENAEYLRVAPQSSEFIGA

Another assay concerns the target T2, WT EGFR (Homo sapiens, UniProt P00533).
T2 construct: host or cells: A-431
Put plainly: WT EGFR cellular phosphorylation inhibition in A-431 (hEGF stimulated, MSD).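 Further: electrochemiluminescence read-out of EGFR Tyr1068 phosphorylation expressed as ratio to total EGFR, cells kept in medium with 1% FBS, compounds tested as a concentration series.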 The following applies: A431 cells, 4 h compound, then 100 ng/ml hEGF 10 min.

The target in another assay is T3, EGFR L858R&T790M (Homo sapiens, UniProt P00533, L858R/T790M).
T3 construct: host or cells: NCI-H1975
Put plainly: EGFR L858R and T790M cellular phosphorylation inhibition in NCI-H1975 (MSD).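 Further: phosphorylated and total EGFR detected by electrochemiluminescence, cells exposed to compound in medium containing 1% FBS at 37 °C.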 As to conditions: NCI-H1975 cells, 4 h compound, p-EGFR(Y1068)/total EGFR; read-out: EGFR L858R and T790M mutation IC50.

Assay [2] concerns the target T4, human EGFR exon 20 H773_V774insNPH (Homo sapiens, UniProt P00533, INS773NPH).
T4 construct: host or cells: Ba/F3
Put plainly: EGFR Exon20 NPH insertion cellular phosphorylation inhibition (MSD pEGFR Y1068/total EGFR).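 Further: IL3-independent Ba/F3 cells with constitutively phosphorylated EGFR, compound exposure at 37 °C under 5% CO2, electrochemiluminescent MSD measurement of the p-EGFR to total EGFR ratio.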 As to conditions: Ba/F3 EGFR NPH ins cells, 4 h compound, p-EGFR(Y1068)/total EGFR.

The structures appear in SMILES notation. pIC50: −log10 of the molar value.

As a reminder, the pIC50 is the negative decadic logarithm of the IC50, by convention in mol/L. For `Cc1cc(C(=O)Nc2nc3cccc(Cl)c3n2[C@@H]2CCCCN(C(=O)/C=C/CN(C)C)C2)ccn1` [EGF816, reference compound], the pIC50 in assay [1] was 6.54; against WT EGFR, 6.30; on EGFR L858R&T790M it was 8.30; in assay [2], 6.43.

Values taken from US20230293535A1, “ERBB/BTK INHIBITORS” (Dizal (Jiangsu) Pharmaceutical Co., Ltd., priority 2018, published 2023).
